Assay results as given in patent publication US11730714B2, “Compounds for the treatment of neuromuscular disorders” (NMD PHARMA A/S, priority 2017, dated 2023).

Target: T1, CIC-1 channels (Rattus norvegicus, UniProt P35524)
T1 construct: Gm was measured in individual fibres of whole rat soleus muscles; from tissue; host or cells: soleus muscle of adult (12-14 week old) Wistar rats
T1 sequence (P35524 1-994): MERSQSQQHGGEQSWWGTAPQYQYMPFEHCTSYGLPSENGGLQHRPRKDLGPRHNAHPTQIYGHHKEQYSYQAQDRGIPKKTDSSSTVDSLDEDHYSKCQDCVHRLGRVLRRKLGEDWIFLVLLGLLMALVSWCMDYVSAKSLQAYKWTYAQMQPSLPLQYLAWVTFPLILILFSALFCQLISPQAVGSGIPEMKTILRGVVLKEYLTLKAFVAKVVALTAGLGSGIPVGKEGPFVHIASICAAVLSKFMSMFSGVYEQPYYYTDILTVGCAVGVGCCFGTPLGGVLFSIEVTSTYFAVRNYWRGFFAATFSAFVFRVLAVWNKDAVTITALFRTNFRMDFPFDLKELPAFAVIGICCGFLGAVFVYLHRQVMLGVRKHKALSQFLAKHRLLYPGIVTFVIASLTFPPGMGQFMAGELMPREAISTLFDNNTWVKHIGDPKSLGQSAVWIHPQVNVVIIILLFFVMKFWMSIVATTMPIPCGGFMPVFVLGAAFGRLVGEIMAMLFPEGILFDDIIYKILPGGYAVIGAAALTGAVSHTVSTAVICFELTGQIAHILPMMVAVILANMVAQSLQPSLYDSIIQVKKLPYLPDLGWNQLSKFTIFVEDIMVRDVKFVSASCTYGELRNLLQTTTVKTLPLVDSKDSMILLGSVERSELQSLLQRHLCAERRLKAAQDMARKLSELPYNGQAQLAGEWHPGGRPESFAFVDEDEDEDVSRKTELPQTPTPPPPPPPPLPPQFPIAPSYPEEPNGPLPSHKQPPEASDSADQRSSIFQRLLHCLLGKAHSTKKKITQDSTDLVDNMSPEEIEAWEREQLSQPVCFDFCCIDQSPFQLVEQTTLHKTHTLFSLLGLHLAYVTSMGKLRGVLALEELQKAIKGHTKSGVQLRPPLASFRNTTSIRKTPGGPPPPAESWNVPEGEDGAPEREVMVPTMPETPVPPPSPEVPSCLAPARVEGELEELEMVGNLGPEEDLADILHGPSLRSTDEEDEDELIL
Experiment: Electrophysiological measurement of compound inhibition of CIC-1 in rat muscle (Gm, EC50)
Assay type: cell-based
Details: rat soleus muscle fibres, three micro-electrode Gm measurement; read-out: EC50 (inhibition of ClC-1 ion channel, Gm)

[2H]c1cc(Br)cc([2H])c1O[C@@H](C)C(=O)O [Compound A-6, (2S)-2-[4-bromo(2,6-^2H2)phenoxy]propanoic acid] was tested. Which EC50 did it give?
The EC50 was 7.4 ± 1.4 µM.
